Legend:
IL-23R = molecular target: T1, IL-23R (Homo sapiens, UniProt Q5VWK5); assay: IL23R Reporter Assay; type: cell-based; conditions: read-out: IL23R Reporter Assay (micromolar); HEK293 cells containing IL-23R, IL-12RP1 and STAT-inducible firefly luciferase reporter; 10 ng/mL IL-23 (EC90); 5 h at 37° C.
T1 construct: host or cells: HEK293
T1 sequence (Q5VWK5 24-629): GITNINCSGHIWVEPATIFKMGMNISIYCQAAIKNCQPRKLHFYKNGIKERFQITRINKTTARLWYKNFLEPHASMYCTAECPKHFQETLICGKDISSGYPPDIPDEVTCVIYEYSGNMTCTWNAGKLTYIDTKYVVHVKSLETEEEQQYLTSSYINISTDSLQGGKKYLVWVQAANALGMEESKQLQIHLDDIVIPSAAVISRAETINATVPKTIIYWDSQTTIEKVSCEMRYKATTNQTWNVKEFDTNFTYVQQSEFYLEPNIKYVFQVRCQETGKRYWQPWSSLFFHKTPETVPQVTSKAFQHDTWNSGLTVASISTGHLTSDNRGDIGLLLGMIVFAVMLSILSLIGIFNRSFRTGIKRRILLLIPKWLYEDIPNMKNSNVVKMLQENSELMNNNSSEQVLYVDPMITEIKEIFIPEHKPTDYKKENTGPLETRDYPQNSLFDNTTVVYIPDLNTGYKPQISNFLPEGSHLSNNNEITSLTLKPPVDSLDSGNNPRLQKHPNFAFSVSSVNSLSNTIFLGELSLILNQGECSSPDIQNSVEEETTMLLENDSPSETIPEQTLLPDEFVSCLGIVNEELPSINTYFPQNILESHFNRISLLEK

[1] = Exposed Polar Surface Area (EPSA); type: physicochemical; conditions: SFC on Chirex 3014 column; sample 1 mM DMSO stock
Excerpt: Exposed Polar Surface Area (EPSA) is an experimental descriptor of molecular polarity obtained from chromatographic retention in supercritical fluid chromatography (SFC).
The stationary phase (Chirex 3014(S)-valine and (R)-1-(alpha-naphthyl) ethylamine) was selected for its balance of lipophilic and polar attributes and its capacity to separate compounds with wide polarity differences. The mobile phase consists of methanol (+Ammonium formate) and CO2. Polar compounds are retained stronger under these conditions and a low-slope gradient of methanol achieves elution based on increasing polarity of the mobile phase. Results are normalized using calibration standards generating a linear relationship between retention times and EPSA values. The unit of EPSA is Å^2.
Along with the measurement of compounds of interest, a series of 8 calibration standards (see Materials) are analyzed generating a linear relationship between retention times and EPSA value. The 8 compounds used as calibration standard have their own EPSA value defined by G. Goetz based on the comparison with TPSA (see G. Goetz, L. Philippe and M. Shapiro, “EPSA: A novel supercritical fluid chromatography technique enabling the design of permeable cyclic peptides,” ACS Med. Chem. Lett., vol. 5, pp. 1167-1172, 2014 for more information). The slope from the linear relationship between EPSA values of these eight compounds and their retention times is used to determine the EPSA value of each compound of interest that's measured under the same condition using the equation as below: […]
The mixture of calibrations standard is reinjected every 20 compounds to validate the stability of the retention time.
The mobile phase modifier consists of ammonium formate LC_MS grade (>99%) (CAS number 540-69-2) diluted to 20 mM in HPLC grade Methanol (MeOH, CAS number 67-56-1) and liquid C02 SFC grade (CAS number 124-38-9).
Antipyrine (CAS number: 60-80-0) Chlorpromazine hydrochloride (CAS number: 69-09-0), desipramine hydrochloride (CAS number: […]), pindolol (CAS Number: 13523-86-9), diclofenac (CAS number: 15307-79-6)), m-nitro benzoic acid (CAS number: 121-92-6), bumetanide (CAS number: 28395-03-1), furosemide (CAS number: 54-31-9) were purchased from Sigma Aldrich (Steihneim, Germany).
All analyses were performed on a ultra performance convergence chromatography (UPC™) apparatus (Waters, Milford, MA, USA) equipped with a sample manager, a binary solvent delivery pump (BSM), a column manager, a convergence manager (automated back pressure regulator), a photo diode array detector (DAD) with a high pressure flow cell, and a mass detector simple quadrupole QDa. After the UV detector, the effluent of the SFC was mixed with an eluent consist of mixture MeOH/water (+0.3% Ammonia) 95/5 delivered by a make up pump with a flow rate of 0.4 mL/min and then split to the QDa using a splitter. The instrument was controlled, and data were processed with Masslynx 4.1.
The Analyses were performed using a 4.6×50 mm Chirex 3014(S)-valine and (R)-1-(alpha- naphthyl) ethylamine column (Phenomenex, Le Pecq, France) with 5 um particle and 100A pore size. The flow rate was 4 mL/min with the outlet pressure set to 14 MPa. The injection volume was 2 μL. the mobile phase composition was varied from 5% to 60% modifier at 20%/ min in a linear gradient, holding at 60% for 1.45 min and reverting to the original 5% until the end of the run. Data are acquired during 5 min. An equilibration time of 1 min is applied between 2 injections resulting in an injection every 6 min. each sample is analyzed in duplicate, resulting in a sample to sample turnaround time of 12 min.
The column temperature was set to 35° C. The mass detector was used in full scan from 100 to 800 for small molecules and from 500 to 1200 for peptides.
Each sample is delivered by compound logistics from DMSO stock solution without dilution. The concentration is 1 mM and the volume is 60 μL.

Substance	IC50 (IL-23R)	EPSA [1]
C12gEPEG2PEG2CO-Pen(3)-N(N(Me)2)-T-7MeW-K(Ac)-Pen(3)-TMAPF-2Nal-THP-K(NMeac)-N-3Pya-NMeK(PEG2PEG2gEC12)-CONH2 [compound 354]	0.33 µM	194.35 Å^2
C12gEPEG2PEG2CO-hk(Me)3-Pen(3)-N(N(Me)2)-T-7MeW-K(NMeAc)-Pen(3)-TMAPF-2Nal-K(PEG2PEG2gEC12)-N-3Pya-Sar-CON(Me)2 [compound 377]	0.097 µM	148.25 Å^2
C12gEPEG2PEG2CO-hk(Me)3-Pen(3)-N(N(Me)2)-T-7MeW-K(NMeAc)-Pen(3)-TMAPF-2Nal-THP-K(PEG2PEG2gEC12)-N-3Pya-Sar-CON(Me)2 [compound 375]	0.24 µM	171.72 Å^2
MeCO-Pen(3)-N(N(Me)2)-t-7MeW-Dab(NMeAc)-Pen(3)-AEF-2Nal-THP-AIB-N-3Pya-Sar-CON(Me)2 [compound 157]	0.0028 µM	149.27 Å^2
MeCO-Pen(3)-N(N(Me)2)-t-7MeW-Dab(NMeAc)-Pen(3)-AEF-2Nal-THP-Dab(NMeAc)-N-3Pya-Sar-CON(Me)2 [compound 170]	0.004 µM	145.98 Å^2
cPEG3aCO-Pen(3)-N(N(Me)2)-T-7MeW-K(Ac)-Pen(3)-TMAPF-2Nal-THP-K(NMeac)-N-3Pya-NMeK(PEG2PEG2C14)-CONH2 [compound 359]	0.014 µM	146.57 Å^2
cPEG3aCO-Pen(3)-N(N(Me)2)-T-7MeW-K(Ac)-Pen(3)-TMAPF-2Nal-THP-K(NMeac)-N-3Pya-NMeK(SP6PEG2PEG2gEC12)-CONH2 [compound 408]	0.0047 µM	165.31 Å^2
cPEG3aCO-Pen(3)-N(N(Me)2)-T-7MeW-K(NMeAC)-Pen(3)-TMAPF-2Nal-THP-K(NMeaC)-N-3Pya-NMeK(PEG2PEG2C12)-CONH2 [compound 307]	0.017 µM	
cPEG3aCO-Pen(3)-N(N(Me)2)-T-7MeW-K(NMeAc)-Pen(3)-TMAPF-2nal-Achx-K(NMeAc)-N-3Pya-Sar-CON(Me)2 [compound 339]	0.0019 µM	154.59 Å^2
cPEG3aCO-Pen(3)-N(N(Me)2)-T-7MeW-K(NMeAc)-Pen(3)-Y(OtzlC1aC8)-2Nal-THP-K(NMeAc)-N-3Pya-Sar-CON(Me)2 [compound 290]	0.12 µM	137.35 Å^2
cPEG3aCO-Pen(3)-N(N(Me)2)-T-7MeW-K(NMeAc)-Pen(3)-mPEG3TMA4F-2Nal-THP-K(NMeAc)-N-3Pya-Sar-CON(Me)2 [compound 272]	0.0022 µM	146.28 Å^2
cPEG3aCO-Pen(3)-N(N(Me)2)-t-7MeW-Dab(NMeAc)-Pen(3)-AEF-2Nal-THP-Dab(NMeAc)-N-3Pya-Sar-CON(Me)2 [compound 160]	0.0024 µM	151.21 Å^2
cPEG3aCO-Pen(3)-N(N(Me)2)-t-7MeW-Dab(NMeAc)-Pen(3)-AEF-2Nal-THP-Dab(NMeAc)-N-3Pya-Sar-CONH(PEG3a) [compound 191]	0.0025 µM	143.97 Å^2
cPEG3aCO-Pen(3)-N(N(Me)2)-t-7MeW-Dab(NMeAc)-Pen(3)-AEF-2Nal-THP-E-N-3Pya-Sar-CON(Me)2 [compound 176]	0.0039 µM	168.08 Å^2
cPEG3aCO-Pen(3)-N(N(Me)2)-t-7MeW-Dab(NMeAc)-Pen(3)-AEF-2Nal-THP-K(NMeAc)-N-3Pya-Sar-CONH2 [compound 171]	0.0029 µM	152.42 Å^2
cPEG3aCO-Pen(3)-N(N(Me)2)-t-7MeW-Dab(NMeAc)-Pen(3)-TMAPF-2Nal-THP-K(NMeAc)-N-3Pya-Sar-CON(Me)2 [compound 358]	0.0053 µM	141.77 Å^2
cPEG3aCO-Pen(3)-N(N(Me)2)-t-7MeW-Dab(NMeAc)-Pen(3)-TMAPF-2Nal-THP-K(NMeAc)-N-3Pya-Sar-CONH2 [compound 362]	0.0022 µM	156.88 Å^2
cPEG3aCO-Pen(3)-N(N(Me)2)-t-7MeW-Dap(NMeAc)-Pen(3)-TMAPF-2Nal-THP-K(NMeAc)-N-3Pya-Sar-CON(Me)2 [compound 414]	0.0027 µM	156.56 Å^2
cPEG3aCO-Pen(3)-N-t-7MeW-Dab(NMeAc)-Pen(3)-TMAPF-2Nal-THP-K(NMeAC)-N-3Pya-Sar-CON(Me)2 [compound 311]	0.0013 µM	156.23 Å^2
cPEG3aCO-Pen(3)-n-T-7MeW-K(NMeAC)-Pen(3)-TMAPF-2Nal-THP-Dab(NMeAc)-N-3Pya-Sar-CON(Me)2 [compound 309]	0.0011 µM	157.5 Å^2
cPEG3aCO-Pen(3)-n-T-7MeW-K(NMeAc)-Pen(3)-AEF-2Nal-THP-Dab(NMeAc)-N-3Pya-Sar-CONH2 [compound 174]	0.0036 µM	158.02 Å^2
cPEG3aCO-Pen(3)-n-T-7MeW-K(NMeAc)-Pen(3)-AEF-2Nal-THP-K(Ac)-N-3Pya-Sar-CONH2 [compound 162]	0.0033 µM	162.6 Å^2
cPEG3aCO-Pen(3)-n-T-7MeW-K(NMeAc)-Pen(3)-AEF-2Nal-THP-K(NMeAc)-N-3Pya-Sar-CONH2 [compound 167]	0.0017 µM	157.24 Å^2
cPEG3aCO-Pen(3)-n-T-7MeW-K(NMeAc)-Pen(3)-APEG3F-2Nal-THP-K(NMeAc)-N-3Pya-Sar-CON(Me)2 [compound 240]	0.003 µM	143.71 Å^2
cPEG3aCO-Pen(3)-n-T-7MeW-K(NMeAc)-Pen(3)-TMAPF-2Nal-THP-K(NMeAc)-N-3Pya-Sar-CON(Me)2 [compound 299]	0.0019 µM	157.14 Å^2
cPEG3aCO-Pen(3)-n-T-7MeW-K(NMeAc)-Pen(3)-TMAPF-2Nal-THP-K(NMeAc)-N-3Pya-Sar-CONH2 [compound 188]	0.0023 µM	146.8 Å^2
cPEG3aCO-k(PEG2PEG2gEC12)-Pen(3)-N(N(Me)2)-T-7MeW-K(NMeAc)-Pen(3)-TMAPF-2Nal-THP-K(NMeAc)-N-3Pya-Sar-CON(Me)2 [compound 378]	0.0062 µM	149.15 Å^2
cPEG3aCO-k(PEG2PEG2gEC12)-Pen(3)-N(N(Me)2)-T-7MeW-K(PEG2PEG2gEC12)-Pen(3)-TMAPF-2Nal-THP-K(NMeAc)-N-3Pya-Sar-CON(Me)2 [compound 382]	0.23 µM	176.03 Å^2
cPEG3aCO-k(PEG2PEG6gEC12)-Pen(3)-N(N(Me)2)-T-7MeW-K(Ac)-Pen(3)-TMAPF-2Nal-THP-K(NMeac)-N-3Pya-NMeK(PEG2PEG6gEC12)-CONH2 [compound 370]	0.061 µM	186.97 Å^2

Reference: patent US20260022143A1, “Cyclic Peptide Inhibitors of IL-23” (JANSSEN PHARMACEUTICA NV, priority 2022, published 2026)
